Test system: Acanthamoeba castellanii trophozoites
Experiment: CellTiter-Glo 2.0 trophocidal assay, A. castellanii
Type: cell-based
Settings: SI = (IC50 A549)/(IC50 Amoeba)
Experimental: This isolate was also purchased from ATCC. Trophozoites were routinely grown axenically at 27 °C in Protease Peptone-Glucose Media (PG) in non-vented 75 cm^2 tissue culture flasks (Olympus, El Cajon, CA, USA), until the cells were 80–90% confluent. For sub-culturing, cells were mechanically harvested to detach the cells from the culture flasks. The cells were collected by centrifugation at 4000 rpm at 4 °C.
The trophocidal activity of compounds was assessed using the CellTiter-Glo 2.0 luminescent viability assay (Promega, Madison, WI, USA), as previously described. Trophozoites were routinely cultured as described above and only logarithmic trophozoites were used. […] Initially all compounds were assessed in a single-point drug screen at 10 and 1 μM, as previously described. […] We used this process to reduce the number of potential false positives. Drugs were cherry-picked, dissolved in the media specific to each parasite, and assessed in twofold serial dilutions from the highest concentration of 10 μM. All assays were incubated at each of the parasites’ representative growth temperatures, described above, for 72 h. […] The adenosine triphosphate (ATP) luminescent signal (relative light units; RLUs) was measured at 490 nm with a SpectraMax I3X plate reader (Molecular Devices, Sunnyvale, CA, USA). […]

## CC(=O)N1CCN(c2ccc(OCC3COC(Cn4ccnc4)(c4ccc(Cl)cc4Cl)O3)cc2)CC1 (stereo not shown) [Ketoconazole]
  Selectivity Index (A549 IC50/A. castellanii IC50): ≥8.10

Source: publication PMC7344389, “Discovery of Anti-Amoebic Inhibitors from Screening the MMV Pandemic Response Box on Balamuthia mandrillaris, Naegleria fowleri, and Acanthamoeba castellanii” (Pathogens, 2020)
